From ChEMBL document CHEMBL1152112, “1-Phenyl-[2H]-tetrahydropyridazin-3-one, A-53612, a selective orally active 5-lipoxygenase inhibitor” (Bioorg Med Chem Lett, 1992)

Protein sequences, listed by entry. Tags and fused reporters are not part of them. Lines headed by an entry give the natural chain unless they say otherwise; changes in a name come on top.
UniProt P35354: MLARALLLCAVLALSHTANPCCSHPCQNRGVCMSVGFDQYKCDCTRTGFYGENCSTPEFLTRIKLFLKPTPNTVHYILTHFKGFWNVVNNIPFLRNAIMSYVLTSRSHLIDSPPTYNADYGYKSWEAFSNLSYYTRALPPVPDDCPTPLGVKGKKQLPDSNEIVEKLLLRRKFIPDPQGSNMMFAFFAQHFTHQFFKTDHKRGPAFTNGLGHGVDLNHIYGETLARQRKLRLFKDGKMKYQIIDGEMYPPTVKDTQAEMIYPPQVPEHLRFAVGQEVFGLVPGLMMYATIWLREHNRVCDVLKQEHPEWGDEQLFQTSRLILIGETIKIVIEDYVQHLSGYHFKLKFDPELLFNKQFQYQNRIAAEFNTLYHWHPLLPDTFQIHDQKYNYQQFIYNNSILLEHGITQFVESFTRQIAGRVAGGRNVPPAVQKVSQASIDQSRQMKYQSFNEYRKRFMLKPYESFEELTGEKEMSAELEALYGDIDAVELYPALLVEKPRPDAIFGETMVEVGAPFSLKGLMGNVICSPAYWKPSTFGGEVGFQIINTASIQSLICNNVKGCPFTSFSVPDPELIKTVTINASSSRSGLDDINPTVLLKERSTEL
UniProt P23219: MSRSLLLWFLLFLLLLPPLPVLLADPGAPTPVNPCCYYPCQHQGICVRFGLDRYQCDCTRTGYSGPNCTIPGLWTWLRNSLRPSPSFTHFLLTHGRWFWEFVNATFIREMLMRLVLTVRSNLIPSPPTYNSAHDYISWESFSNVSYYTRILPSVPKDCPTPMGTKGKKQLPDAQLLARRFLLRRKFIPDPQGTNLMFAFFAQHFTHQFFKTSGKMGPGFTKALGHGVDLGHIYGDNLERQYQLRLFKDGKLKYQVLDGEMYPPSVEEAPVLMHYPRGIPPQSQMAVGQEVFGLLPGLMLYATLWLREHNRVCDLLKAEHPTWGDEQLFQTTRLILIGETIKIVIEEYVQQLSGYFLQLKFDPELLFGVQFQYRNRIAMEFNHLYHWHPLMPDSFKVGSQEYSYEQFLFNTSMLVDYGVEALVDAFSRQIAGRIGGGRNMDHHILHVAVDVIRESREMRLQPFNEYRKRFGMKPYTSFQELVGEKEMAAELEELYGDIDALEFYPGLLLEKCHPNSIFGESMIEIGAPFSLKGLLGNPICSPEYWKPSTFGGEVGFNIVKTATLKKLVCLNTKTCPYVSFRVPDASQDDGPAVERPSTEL

Legend:
Cyclooxygenase [1] = biological target: T1, Cyclooxygenase (Homo sapiens, UniProt P35354+P23219); experiment: Inhibitory activity against sheep seminal vesicle cyclooxygenase was evaluated; format: tissue-based, Ovis aries
Cyclooxygenase [2] = biological target: T1, Cyclooxygenase; experiment: Inhibitory activity against human whole blood, TXB2 cyclooxygenase was evaluated; format: protein assay

`NC1=NN(c2cccc(C(F)(F)F)c2)CC1` [BW-755C] gave an IC50 (Cyclooxygenase [1]) of 97 µM and an IC50 (Cyclooxygenase [2]) of 5.8 µM.
